SR-BI HDL uptake – blocks mouse SR-BI lipid uptake from DiI-HDL; inhibition, % at 12.5 µM; AID 488896; actives 0.96% (n = 320,000); Q61009; ldlA[mSR-BI] CHO cells, DiI-HDL uptake fluorescence, 3 h;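 active = mean replicate inhibition of at least 70% and a set share of replicates each scoring 70 or more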;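 note: 0% = median of neutral control wells and 100% = median of positive control wells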
SR-BI uptake up – SR-BI HDL lipid transfer activation. CHO ldlA[mSR-BI] cells, DiI-HDL uptake fluorescence, 3 h; 100 = double the neutral-control signal. activation, % at 12.5 µM. actives 0.096% (n = 320,000). AID 504775;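 active = mean replicate activation of at least 60% and every replicate at or above 60%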;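 note: 0% = median plate neutral-control signal and 100% = twice that signal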
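System: CHO ldlA[mSR-BI] cells / Medium: HEPES-buffered (25 mM, pH 7.4) F12 plus 0.5% BSA / Probe or stimulus: labelled HDL, 10 µg/mL / Doses: single compound concentration, delivered by pin transfer / Schedule: 3 h, 37 °C / Measured by: DiI fluorescence, bottom read / Measure: cell-associated DiI fluorescence as measure of HDL uptake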
INS-1E GSIS act – GLuc luminescence reporter in INS-1E cells, primary screen for activators of glucose-dependent secretion of insulin. AID 743287. activation, % at 16.6 µM. INS-1E GLuc reporter insulin secretion, 2-3 h. actives 0.61% (n = 370,000);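 active = lowest replicate activation of at least 40%, so every replicate reaches that level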;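 note: 0% = median of neutral control wells and 100% = median of IBMX positive control wells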
Yeast UUG start – alters start codon recognition fidelity in yeast; S. cerevisiae UUG-firefly luciferase reporter, luminescence/redox ratio; activity score, % at 18.7 µM; hit rate 0.13% among 350,000;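 active = replicate mean at a twofold rise or more, about +100% in these data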;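 also: firefly luciferase made from a UUG start codon reports start codon fidelity; reporter light over untreated wells divided by growth signal over untreated wells; some hits fall short of that in this replicate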
* = called active by the depositor; · = no result. Sampled rows, rich in hits. Any-hit rate of the full collection: about 1.3%.

SMILES	SR-BI HDL uptake	SR-BI uptake up	INS-1E GSIS act	Yeast UUG start
COc1ccc(CN(C)C[C@H]2Oc3ccc(NS(=O)(=O)c4cn(C)cn4)cc3C(=O)N([C@@H](C)CO)C[C@@H]2C)cc1	·	·	1	-10
C[C@H]1CN([C@@H](C)CO)S(=O)(=O)c2ccc(C#Cc3ccccc3)cc2O[C@H]1CN(C)S(C)(=O)=O	·	·	-15	-3
CC(C)(C)c1ccc(OCCCC(=O)NNC(=O)c2ccccc2O)cc1	120*	-120	9	0
Cc1cc(C(=O)NNC(=O)CCCOc2ccccc2)c(C)o1	-16	16	4	-17
CC(C)(C)c1ccc(C(=O)NCC(=O)NNC(=O)c2ccccc2O)cc1	90*	-90	-15	·
O=C(Nc1ccc([N+](=O)[O-])cc1)Nc1ccc(OC(F)F)c(Cl)c1	33	-33	174*	·
COCCN1Cc2cccc(C(=O)NCc3ccccc3OC)c2C1=O	-11	11	55*	-4
COc1ccccc1N(C)S(=O)(=O)c1ccc(C(=O)NNC(=O)c2ccccc2O)cc1	126*	-126	-39	·
CCN(c1ccccc1)S(=O)(=O)c1ccc(Cl)c(C(=O)NCCc2ccc(OC)cc2)c1	1	-1	-22	-7
COc1ccc(N(C)S(=O)(=O)c2ccc(Cl)c(C(=O)NNC(=O)c3ccccc3O)c2)cc1	79*	-79	-20	-12
COc1ccccc1N(C)S(=O)(=O)c1ccc(Cl)c(C(=O)NNC(=O)c2ccccc2O)c1	81*	-81	-23	10
CCCC(=O)Nc1ccc2c(c1)C(=O)N(C)C[C@H](OC)[C@H](C)CN(CCC(F)(F)F)[C@@H](C)CO2	·	·	1	·
COc1ccc(/C=C/C(=O)Nc2cc(C(F)(F)F)ccc2Cl)cc1OC	68	-68	-31	-12
COc1cc(/C=C/C(=O)Nc2cc(C(F)(F)F)ccc2Cl)cc(OC)c1OC	78*	-78	·	6
COc1ccc(CNCC(O)COc2ccc(C(C)(C)c3ccccc3)cc2)cc1 (stereo unspecified)	16	-16	73*	·
CCOCC(O)CNc1ccccc1 (stereo unspecified)	-28	28	9	-1
CC(C)(c1ccccc1)c1ccc(OCC(O)CNC2CCN(Cc3ccccc3)CC2)cc1 (stereo unspecified)	-20	20	666*	-15
OC(CNc1ccccc1)COc1ccc(OCC(O)CNc2ccccc2)cc1 (stereo unspecified)	74*	-74	·	0
O=C(C[C@H]1CC[C@@H]2NC[C@@H](O)COC[C@H]2O1)NCCc1ccncc1	·	·	14	·
Cc1ccc(S(=O)(=O)Nc2ccc3c(c2)C(=O)N([C@@H](C)CO)C[C@H](C)[C@@H](CN(C)C(=O)c2ccccc2)OCCCC[C@@H](C)O3)cc1	·	·	-29	18
COc1ccc(OC)c(C2=Nn3c(nnc3-c3cc(OC)c(OC)c(OC)c3)SC2)c1	67	-67	33	-10
COc1ccc(C2=Nn3c(nnc3-c3ccccc3F)SC2)cc1OCC1CC1	-12	12	79*	-38
COc1ccc(OC)c(C2=Nn3c(nnc3-c3ccncc3)SC2)c1	·	·	41*	·
C[C@@H]1CCCCO[C@H](CN(C)C(=O)Nc2ccc3c(c2)OCO3)[C@@H](C)CN([C@@H](C)CO)C(=O)c2cc(NC(=O)c3ccccc3)ccc2O1	·	·	-14	11
C[C@@H]1CN([C@@H](C)CO)C(=O)Cc2cc(NC(=O)Nc3ccc4c(c3)OCO4)ccc2O[C@@H]1CN(C)Cc1ccccc1	·	·	-14	5
C[C@H](CO)N1C[C@H](C)[C@H](CN(C)C(=O)c2cccnc2)Oc2cc(C#CC3(O)CCCC3)ccc2S1(=O)=O	·	·	22	·
CC(=O)Nc1nc(C)nc(-c2ccccc2OC(C)=O)n1	-29	29	45*	-10
CC(C)NC(=O)N(C)C[C@H]1Oc2ccc(N)cc2CC(=O)N(C)C[C@@H]1C	·	·	7	·
CN1[C@@H]2CN(S(C)(=O)=O)C[C@H]1C2c1ccc(-c2ccc(F)cc2)cc1 (stereo partly specified)	·	·	0	·
COc1ccc2sc(-c3ccc(N(C)C)cc3)c(C#CCCO)c2c1	96*	-96	-2	-13
COC(=O)C1=C(C)N(Cc2cccc(C(F)(F)F)c2)C(=NCc2cccc(C(F)(F)F)c2)NC1c1ccc(Cl)cc1 (stereo unspecified)	·	·	785*	·
C=CCN=C1NC(c2ccc(Cl)cc2)C(C(=O)OC)=C(C)N1Cc1cccc(C(F)(F)F)c1 (stereo unspecified)	·	·	-11	·

Part of the list above in another layout:
Fields – SR-BI HDL uptake, SR-BI uptake up, INS-1E GSIS act, Yeast UUG start
C[C@H](CO)N1C[C@H](C)[C@H](CN(C)C(=O)c2cccnc2)Oc2cc(C#CC3(O)CCCC3)ccc2S1(=O)=O
→ ·, ·, 22, ·
CC(=O)Nc1nc(C)nc(-c2ccccc2OC(C)=O)n1
→ -29, 29, 45*, -10

Record cards (already shown). Order of screens: SR-BI HDL uptake	SR-BI uptake up	INS-1E GSIS act	Yeast UUG start
COc1ccc(OC)c(C2=Nn3c(nnc3-c3ccncc3)SC2)c1 across the screens: ·	·	41*	·
COc1ccc(OC)c(C2=Nn3c(nnc3-c3cc(OC)c(OC)c(OC)c3)SC2)c1 across the screens: 67	-67	33	-10

Screening results (PubChem BioAssay)
